Each compound was assayed against T1, Prostaglandin G/H synthase 2 (Mus musculus, UniProt Q05769) (assay: COX Enzyme Inhibition Assay (Table 1)).
T1 sequence (Q05769 whole entry): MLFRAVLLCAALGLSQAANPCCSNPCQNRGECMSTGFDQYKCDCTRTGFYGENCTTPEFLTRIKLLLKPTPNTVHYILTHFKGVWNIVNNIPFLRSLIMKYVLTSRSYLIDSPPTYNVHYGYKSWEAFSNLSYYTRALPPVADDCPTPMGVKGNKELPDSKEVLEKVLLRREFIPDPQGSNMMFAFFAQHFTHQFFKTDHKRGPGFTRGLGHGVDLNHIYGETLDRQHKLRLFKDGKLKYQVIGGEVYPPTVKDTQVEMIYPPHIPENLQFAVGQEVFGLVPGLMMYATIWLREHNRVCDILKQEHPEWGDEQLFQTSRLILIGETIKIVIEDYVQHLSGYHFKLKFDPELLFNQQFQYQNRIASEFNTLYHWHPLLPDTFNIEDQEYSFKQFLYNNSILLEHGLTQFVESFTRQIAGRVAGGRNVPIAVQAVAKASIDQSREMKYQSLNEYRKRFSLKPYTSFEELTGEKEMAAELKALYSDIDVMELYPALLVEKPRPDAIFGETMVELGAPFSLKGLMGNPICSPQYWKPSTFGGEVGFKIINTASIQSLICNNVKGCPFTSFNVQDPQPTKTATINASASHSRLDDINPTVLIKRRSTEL
Experimental: Each molecule was evaluated for its ability to inhibit purified mouse COX-2 or ovine COX-1 using a previously described assay. [Kalgutkar et al, J. Med. Chem., 43:2860-2870]

For `COc1ccc2c(c1)c(CC(=O)NCc1ccc(CNC(=O)CCC(=O)O[C@@H]3c4cc5c(cc4[C@H](c4cc(OC)c(OC)c(OC)c4)[C@@H]4C(=O)OCC34)OCO5)cc1)c(C)n2C(=O)c1ccc(Cl)cc1` (some centres not stated) [Cytotoxic conjugates, 15], which IC50 is on record?
Its IC50 is 0.18 µM.

`COc1ccc2c(c1)c(CC(=O)NCCNC(=O)CCC(=O)Nc1ccc(S(=O)(=O)Nc3nccs3)cc1)c(C)n2C(=O)c1ccc(Cl)cc1` [Cytotoxic conjugates, 8] was tested. Which IC50 did it give?
The IC50 was 0.92 µM.

`COc1ccc2c(c1)c(CC(=O)NCCCCNC(=O)CCC(=O)OC1CCCCC1)c(C)n2C(=O)c1ccc(Cl)cc1` [Cytotoxic conjugates, 16] was tested. Which IC50 did it give?
Its IC50 is 0.48 µM.

With `COc1ccc2c(c1)c(CC(=O)NCCCCOC(=O)CCC(=O)O[C@@H]1c3cc4c(cc3[C@H](c3cc(OC)c(OC)c(OC)c3)[C@@H]3C(=O)OCC13)OCO4)c(C)n2C(=O)c1ccc(Cl)cc1` (some centres not stated) [Cytotoxic conjugates, 14] as the compound, how does the IC50 read?
The IC50 was 0.14 µM.

`COc1ccc2c(c1)c(CC(=O)NCCCCOC(=O)CCC(=O)O[C@@H](C(=O)O[C@H]1C[C@@]3(O)[C@@H](OC(=O)c4ccccc4)[C@@H]4[C@]5(OC(C)=O)CO[C@@H]5C[C@H](O)[C@@]4(C)C(=O)[C@H](OC(C)=O)C(=C1C)C3(C)C)[C@@H](NC(=O)c1ccccc1)c1ccccc1)c(C)n2C(=O)c1ccc(Cl)cc1` [Cytotoxic conjugates, 3] was tested. Which IC50 did it give?
The IC50 was 2.2 µM.

With `COc1ccc2c(c1)c(CC(=O)NCCOC(=O)\C=C(C)/C=C/C=C(C)/C=C/C1=C(C)CCCC1(C)C)c(C)n2C(=O)c1ccc(Cl)cc1` [Cytotoxic conjugates, 5] as the compound, how does the IC50 read?
The IC50 was 0.45 µM.

With `COc1ccc2c(c1)c(CC(=O)Nc1ccc(CNC(=O)CCC(=O)O[C@@H](C(=O)O[C@H]3C[C@@]4(O)[C@@H](OC(=O)c5ccccc5)[C@@H]5[C@]6(OC(C)=O)CO[C@@H]6C[C@H](O)[C@@]5(C)C(=O)[C@H](OC(C)=O)C(=C3C)C4(C)C)[C@@H](NC(=O)c3ccccc3)c3ccccc3)cc1)c(C)n2C(=O)c1ccc(Cl)cc1` [Cytotoxic conjugates, 4] as the compound, how does the IC50 read?
The IC50 was 0.25 µM.

Reference: BindingDB's records for doi:10.1021/acschembio.6b00560 (Vanderbilt Institute of Chemical Biology, Vanderbilt …, 2016)
